The chains behind the UniProt entries cited, without tags or fusion partners. Where a name states a change or a piece, a line headed by the entry shows the natural chain unless it says otherwise.
UniProt P31749: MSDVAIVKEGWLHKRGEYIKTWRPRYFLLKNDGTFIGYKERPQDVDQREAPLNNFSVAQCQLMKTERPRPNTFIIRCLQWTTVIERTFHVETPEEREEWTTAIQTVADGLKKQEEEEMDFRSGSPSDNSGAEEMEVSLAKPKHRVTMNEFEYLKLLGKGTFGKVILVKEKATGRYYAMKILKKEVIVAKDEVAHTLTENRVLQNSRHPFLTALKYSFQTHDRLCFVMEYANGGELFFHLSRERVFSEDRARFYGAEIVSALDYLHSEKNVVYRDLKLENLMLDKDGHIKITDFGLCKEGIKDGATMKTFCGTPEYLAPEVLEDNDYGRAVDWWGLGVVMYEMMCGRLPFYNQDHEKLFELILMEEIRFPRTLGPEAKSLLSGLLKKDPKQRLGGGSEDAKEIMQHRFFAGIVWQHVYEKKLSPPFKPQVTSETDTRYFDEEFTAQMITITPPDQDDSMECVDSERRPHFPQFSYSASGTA
UniProt P53350, whole entry: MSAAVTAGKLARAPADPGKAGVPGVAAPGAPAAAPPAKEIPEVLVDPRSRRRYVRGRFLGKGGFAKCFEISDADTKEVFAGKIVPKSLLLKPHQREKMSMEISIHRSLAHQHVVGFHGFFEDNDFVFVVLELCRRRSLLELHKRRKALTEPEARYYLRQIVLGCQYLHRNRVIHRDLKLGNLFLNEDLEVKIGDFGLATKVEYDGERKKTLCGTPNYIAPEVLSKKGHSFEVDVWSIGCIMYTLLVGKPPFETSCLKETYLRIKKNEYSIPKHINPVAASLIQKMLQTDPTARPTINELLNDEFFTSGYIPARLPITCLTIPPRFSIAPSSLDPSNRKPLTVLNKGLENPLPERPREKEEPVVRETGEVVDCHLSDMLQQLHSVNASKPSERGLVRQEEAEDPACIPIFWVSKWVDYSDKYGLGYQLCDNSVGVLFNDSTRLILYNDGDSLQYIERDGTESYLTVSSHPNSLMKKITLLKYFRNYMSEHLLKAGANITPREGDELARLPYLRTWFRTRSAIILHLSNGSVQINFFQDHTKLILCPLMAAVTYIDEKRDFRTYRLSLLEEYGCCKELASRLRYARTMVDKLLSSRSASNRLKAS

According to ChEMBL document CHEMBL2034932, “2-Anilino-4-(benzimidazol-2-yl)pyrimidines--a multikinase inhibitor scaffold with antiproliferative activity toward cancer cell lines” (Eur J Med Chem, 2012):

Assays:
[1] = target: RAC-alpha serine/threonine-protein kinase (Homo sapiens, UniProt P31749); test: Inhibition of recombinant AKT1 using GSK3 as substrate assessed as inhibition of [33P]Phosphate incorporation into substrate after 80 mins by scintillation counting
[2] = target: Serine/threonine-protein kinase PLK1 (Homo sapiens, UniProt P53350); test: Inhibition of recombinant PLK1 using RBERCHKtide as substrate assessed as inhibition of [33P]Phosphate incorporation into substrate after 80 mins by scintillation counting

IC50 [1]: > 100 µM
IC50 [2]: > 100 µM
SMILES: Cc1ccc(Nc2nccc(-c3nc4ccccc4n3C)n2)cc1
